Results taken from patent publication US12168639B2 (priority 2013, dated 2024).

Assays:
rats = assay: Rats treated with vehicle or DNPME (FIGS. 20, 21, 23)
[1] = system: intracellular energy charge in liver and skeletal muscle; assay: Tissue energetics and AMPK/ACC phosphorylation in liver and quadriceps; details: therapeutic dose; 5 day DNPME-treated rats
Description: Livers from rats sacrifice by decapitation were isolated within 15 seconds, and quadriceps muscle within 40 seconds. ˜50 mg of tissue were homogenized in a buffer of 50% methanol, 10 μM EDTA, 2 mM ammonium acetate, and 20 μM taurine-d4. Following a 20 minute spin at 20,000 rcf and 4° C., the supernatant was kept on ice for 20 min, then spun again at 16,000 rcf in filter tubes for 5 min. The flow-through was separated on a C18 5 μm 100 Å 4.6×100 mm column (Phenomenex, Torrance, CA) before ionization for multiple reaction monitoring (MRM) analysis by LC/MS/MS (Applied Biosystems/MDS SCIEX, 5000 Q-TRAP). Each analyte was eluted isocratically in 12 uM ammonium formate/5% methanol at a flow rate of 400 μl/min. Individual ion pairs were designated for each analyte, and the relative concentrations were determined by manual integration.

[2] = system: Isolated mitochondria from brain; assay: Mitochondrial respiration (uncoupling) in isolated brain mitochondria; type: cell-based, rat; details: 0, 3.125, 6.25, and 12.5 μM
[3] = Stability under acidic conditions
rats fed high fat diet = assay: NAFLD prevention study (2 weeks high fat diet with concurrent daily DNPME)
Description: (§1) Rats used for the studies to determine whether DNPME could prevent the development of NAFLD were fed high fat diet and sucrose water for 2 weeks, during which time they were concurrently injected with daily 5 mg/kg IP doses of DNPME in 100% DMSO (250 μl/kg body weight) or vehicle. Rats used for the NAFLD reversal studies were fed high a fat diet and sucrose water for 1 week, then were given daily injections of DNPME or vehicle for 5 days while continuing the high fat diet and sucrose water. To measure caloric intake, the volume of water and weight of food consumed each day were measured, and calorie content was calculated using the known composition of each item.

rat model of T2D = assay: 14 days DNPME in nicotinamide/streptozotocin high fat fed rats
Description: To induce mild beta-cell defect and type 2 diabetes, rats were injected with 75 mg/kg nicotinamide and, following a 15 minute wait, the rats were injected with 60 mg/kg streptozotocin. Animals were allowed to recover for 3 days, and those with random plasma glucose between 150 and 350 mg/dl were used for further study. At this time, high fat diet and sucrose water feeding was initiated. After 3 days of feeding, two weeks of daily DNPME or vehicle injections were begun.
Liver and kidney samples were prepared and stained with hematoxylin & eosin, and analyzed (Kleiner et al., 2005, Hepatology 41:1313-1321).
(§2) Following an overnight fast, rats with a jugular venous line were injected with a 1 g/kg intraperitoneal bolus of 50% dextrose. Blood samples were taken through the venous line before and 5, 10, 20, 30, 45, 60, and 90 min after the dextrose injection. Plasma glucose was measured enzymatically on the YSI Life Sciences 2700 Select Biochemistry Analyzer (Yellow Springs, OH), and plasma insulin was measured by radioimmunoassay. Area under the curve was measured from time point A to subsequent time point B according to the following formula: […]
(§3) Triacylglycerol (TAG) in liver and quadriceps muscle were extracted (Bligh & Dyer, 1959, Can. J. Biochem. Physiol. 37:911-917) and measured spectrophotometrically with Diagnostic Chemicals triglyceride reagent (Diagnostic Chemicals Ltd [DCL], Charlottetown, Canada). Liver and quadriceps diacylglycerol (DAG) were extracted by homogenization in a buffer containing 20 mM Tris-HCl, 1 mM EDTA, 0.25 mM EGTA, 250 mM sucrose, 2 mM phenylmethylsulfonyl fluoride, and a protease inhibitor mixture (Roche, Indianapolis, Indiana). The cytosolic fragment was isolated from the supernatant after high speed centrifugation for 1 hour. Diacylglycerol (DAG) and ceramide content was measured by liquid chromatography/mass spectrometry/mass spectrometry (Bligh & Dyer, 1959, Can. J. Biochem. Physiol. 37:911-917).

rat model of NAFLD = assay: NAFLD reversal study (5 days DNPME in high fat/sucrose fed rats)
Description: as §1, §2
Hyperinsulinemic-englycemic clamps were performed and basal and insulin-stimulated glucose turnover were measured using [6,6]^2H glucose (Erion et al., 2013, Endocrinology 154:36-44). To measure insulin-stimulated glucose uptake in heart and quadriceps muscle, [^14C]2-deoxyglucose was injected at the conclusion of the clamp, and tissues processed (Samuel et al., 2007, J. Clin. Invest. 117:739-745).
PKCε translocation in liver and PKCO translocation in muscle from 6-hour fasted rats in the NAFLD treatment study were measured by Western blot (Choi et al., 2007, Proc. Natl. Acad. Sci. USA 104:16480-16485).
as §3
To measure liver triglyceride export, 300 mg/kg of a lipoprotein lipase (LPL) inhibitor, Poloxamer 407 (Sigma, St. Louis, MO) was injected, and plasma was sampled at time 0, 1, 2, 3, and 4 hours after treatment. Plasma triglyceride concentration was measured using the DCL triglyceride reagent. […] Thus, the slope of the least-squares regression of the graph of plasma triglyceride concentration versus time (Microsoft Excel, Redmond, WA) was considered to be the TAG export rate. Tissue ceramide content was measured by LC/MS/MS (Yu et al., 2002, J. Biol. Chem. 277:50230-50236).
Hepatic glycogen content was assessed by amyloglucosidase digestion (Passonneau & Lauderdale, 1974, Anal. Biochem. 60:405-412).
Plasma concentrations of twelve inflammatory markers were measured by ELISA (QIAGEN, Valencia, CA). Adiponectin was measured by ELISA. Lactate was measured by COBAS, and FGF-21 by ELISA (Millipore).

[4] = system: rats fed a high-fat diet and sucrose supplemented (5%) drinking water; assay: Liver TAG dose finding in rats fed high-fat diet and sucrose water; type: in vivo, rat
[5] = high fat diet two weeks, daily 5 mg/kg

COc1ccc([N+](=O)[O-])cc1[N+](=O)[O-]
visceral fat and hepatic steatosis (rats; DNPME vs vehicle, photograph): visible reductions
peripheral glucose uptake (rats; rat, in vivo): increases
ATP/AMP, ATP/ADP or NADH/NAD+ ratios in liver and skeletal muscle [1]: no differences
phosphorylation of hepatic AMPK or acetyl CoA carboxylase (ACC) [1]: no differences
mitochondrial uncoupling (oxygen consumption) [2]: not brain
stability under acidic conditions [3]: improved stability
hepatic insulin resistance (rats fed high fat diet; [5]): prevents
peripheral muscle insulin resistance (rats fed high fat diet; [5]): prevents
NAFLD (rats fed high fat diet; rat, in vivo): prevents
glucose intolerance (rats fed high fat diet; rat, in vivo): prevents
skeletal muscle triglyceride accumulation (rats fed high fat diet; rat, in vivo): prevents
fasting plasma glucose concentrations (rat model of T2D): normalized
fasting plasma triglyceride concentrations (rat model of T2D): normalized
glucose tolerance (rat model of T2D): marked improvement
liver TAG content (rat model of T2D): marked reduction
muscle TAG content (rat model of T2D): marked reduction
renal or hepatic histopathology (rat model of T2D): without any indication
fasting plasma glucose (rat model of NAFLD; 5 days daily DNPME vs vehicle): lower
fasting plasma insulin (rat model of NAFLD; 5 days daily DNPME vs vehicle): lower
fasting plasma triglyceride (rat model of NAFLD; 5 days daily DNPME vs vehicle): lower
reduction in liver TAG export (rat model of NAFLD; Poloxamer 407, vs vehicle): 50%
hepatic and peripheral insulin sensitivity (rat model of NAFLD; clamp, vs vehicle): marked improvement
insulin-stimulated glucose uptake in skeletal muscle (rat model of NAFLD; clamp, vs vehicle): more than two-fold increase
NAFLD (rat model of NAFLD; high fat fed rats): reverses
basal hepatic glucose production (rat model of NAFLD; high fat fed rats): corrects
glucose infusion rate required to maintain euglycemia (rat model of NAFLD; hyperinsulinemic-euglycemic clamp, vs vehicle): greater than three-fold increase
cardiac glucose uptake (rat model of NAFLD; insulin resistant rodent model of NAFLD): increases
PKCε translocation in liver (rat model of NAFLD; vs vehicle): reduced
PKCθ translocation in muscle (rat model of NAFLD; vs vehicle): reduced
glucose tolerance (plasma glucose and insulin in intraperitoneal glucose tolerance test) (rat model of NAFLD; vs vehicle): much more glucose tolerant
reduction in basal endogenous glucose production (rat model of NAFLD; vs vehicle): 20%
reduction in liver TAG (rat model of NAFLD; vs vehicle): 40-50%
reduction in liver diacylglycerol (DAG) content (rat model of NAFLD; vs vehicle): 40-50%
reduction in muscle TAG (rat model of NAFLD; vs vehicle): 40-50%
reduction in muscle diacylglycerol (DAG) content (rat model of NAFLD; vs vehicle): 40-50%
lowest dose effective at lowering liver TAG ([4]; daily dose, 5 days): 5 mg/kg
daily doses effective at reducing hepatic triglyceride accumulation ([4]; five days of daily treatment, high-fat diet and 5% sucrose water): above 2.5 mg/kg

Some compounds may have been tested in ways that are not shown here.
